GALK inhibitor – galactokinase (human) inhibition | Purified GALK, Kinase-Glo residual ATP luminescence | P51570 | Potency, µM (titrated, usually from 57.5 µM), for inactives: at the top dose activity change, negative = inhibition, most hits filed as inhibitors | 270,000 compounds, 0.007% hits; also: potency is read from the fitted curve at half-maximal effect; % is scaled to controls: 0 for no effect and ±100 for the full control effect
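Quantitative HTS: GALK 5 nM, ATP 35 uM, galactose 100 uM, 1 h room temperature, then luciferase-based ATP detection.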
PI4K2A block – PI4K2A (human) kinase inhibition. activity change, negative = inhibition, % at 76.9 µM. AID 1346378. Q9BTU6. purified PI4K2A, ADP-Glo luminescence, 1 h; active compounds read low. 420,000 compounds, 0.13% hits; in the data active = activity change below about -50%; inconclusive = mostly about -30% to -49%;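 also: -100% = wells without enzyme as full effect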
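PI4K2A activity was measured by ADP-Glo luminescence: enzyme (4 ug/mL stock) and phosphatidylinositol (1.2 mM stock) in Tris pH 7.5/MgCl2/EGTA/Triton X-100 buffer were reacted with ATP (300 microM stock) for one hour at ambient temperature.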
Nrf2 block – Nrf2 pathway inhibition; 360,000 compounds, 2.1% hits; A549 ARE-Fluc reporter, luciferase luminescence, 18-24 h; Potency, µM (top dose mostly 46 µM), without a hit: at the highest dose activity change, negative = inhibition, most hits filed as inhibitors; also: potency is read from the fitted curve at half-maximal effect; % is scaled to controls: 0 for no effect and ±100 for the full control effect; nearly all actives have a fitted effect of over 60% in size
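Cells were seeded and rested 2 h, then exposed to compounds for 18-24 h. CellTiter-Fluor was read first as a viability measure. BugLite was added 15 min before the final luminescent read of ARE-luciferase activity in A549 cells.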
A549 tox-1 – kills or reduces viability of A549 cells in Nrf2 counter-screen | A549 ARE-Fluc cells, CellTiter-Fluor viability, 18-24 h | AID 504648 | 390,000 compounds, 0.16% hits | Potency, µM (series often up to 46 µM), without a hit: at the top dose activity change, negative = cytotoxicity, hits mostly inhibitors; also: potency is read from the fitted curve at half-maximal effect; % is scaled to controls: 0 for no effect and ±100 for the full control effect
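Cytotoxicity counterscreen: CellTiter-Fluor fluorescence was measured in A549 ARE_Fluc cells after 18-24 h of compound exposure in a concentration series. The subsequent BugLite luminescent read reports ARE-luciferase activity.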
Nrf2 activator – Nrf2 pathway activation. AREc32 ARE-luciferase reporter (MCF7-derived line), luminescence, 24 h. 410,000 compounds, 0.31% hits. AID 624171. Potency, µM (highest dose often 46.1 µM), inactives show at the top dose activation, usual class: activators; also: potency is read from the fitted curve at half-maximal effect; % of control where 0% means no effect; nearly all actives have a fitted effect of over 65% in size
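Nrf2 activation is followed as ARE-luciferase induction in the AREc32 line after one day of compound treatment; luminescence is read with Steady-Glo.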
miR-21 FLuc – miR-21 reporter, rising signal | HeLa miR-21 FLuc reporter, luciferase, 48 h | Potency, µM (top dose mostly 38.3 µM), inactives show at the top dose reporter change, positive = more light | 340,000 tested, under 10 active | AID 2288; active = well fitted rising curve with a large enough effect; inconclusive = small, poorly fitted or top-dose-only effect; inactive = no such curve, though single readings can be large or run the other way;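 further: % of control where 0% means no effect; miR-21 action dims this reporter so a rising signal means less miR-21 action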
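Compounds were titrated across several concentrations (up to approximately 40 uM) and incubated 48 hours with HeLa miR-21-FLuc reporter cells (miR-21 target sequence downstream of FLuc, endogenous miR-21). Readout was firefly luciferase luminescence after lytic detection reagent.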
FLuc counter 3 – firefly luciferase inhibition, Nrf2 hit validation. shares compounds with Nrf2 block. purified firefly luciferase, luminescence inhibition. Potency, µM (titrated, usually from 57.5 µM), for inactives: top-dose activity change, negative = inhibition, hits mostly inhibitors. 1,400 compounds, 4% hits; also: potency is read from the fitted curve at half-maximal effect; % is scaled to controls: 0 for no effect and ±100 for the full control effect; nearly all actives have a fitted effect of over 65% in size
A549 tox-2 – toxic to A549 ARE-Fluc cells in Nrf2 counterscreen. shares compounds with Nrf2 block. A549 ARE-Fluc cells, cytotoxicity counterscreen. Potency, µM (top dose mostly 46.1 µM), for inactives: at the highest dose activity change, negative = cytotoxicity, actives largely listed as inhibitors. 1,400 compounds, 2% hits. AID 720523;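 also: potency is read from the fitted curve at half-maximal effect; cells exposed to compounds for 18 to 24 hours; % is scaled to controls: 0 for no effect and ±100 for the full control effect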
ARE-Fluc inh – reduces Nrf2 ARE reporter signal in A549 cells | 1,400 compounds, 74% hits | AID 720524 | A549 ARE-firefly luciferase reporter, luminescence | shares compounds with Nrf2 block | Potency, µM (series often up to 46.1 µM), for the others: at the top dose activity change, negative = inhibition, usual class: inhibitors; also: potency is read from the fitted curve at half-maximal effect; % is scaled to controls: 0 for no effect and ±100 for the full control effect; nearly all actives have a fitted effect of over 65% in size
* = called active by the depositor. Sampled rows, rich in hits. Any-hit rate of the full collection: about 2.2%. Unless noted, calls follow the shape of the dose curve; as a rule, active = well fitted curve in the direction sought with a large enough effect; inconclusive = small, poorly fitted or top-dose-only effect, or another doubt; inactive = no such curve, though single readings can be large; an effect the other way counts as inactive or inconclusive.

Screening CC(=O)[C@H]1CCC2C3CC[C@H]4C[C@@H](O)CC[C@]4(C)C3CC[C@@]21C (stereo partly specified) returned PI4K2A block 1, Nrf2 block 11%, A549 tox-1 11% and Nrf2 activator 0%.
For CC(=O)OC1CC2(O)C3CCC4CC(O)CCC4(C)C3CCC2(C)C1C1=CC(=O)OC1 (stereo unspecified) the results were PI4K2A block 0, Nrf2 block 0.065µM*, A549 tox-1 inconclusive, Nrf2 activator -2%, FLuc counter 3 2%, A549 tox-2 inconclusive and ARE-Fluc inh 0.058µM*.
Screening CC(=O)c1cccc(NC(=O)c2cc3c(s2)-c2c(C)cccc2OC3)c1 returned PI4K2A block -3, Nrf2 block 7.3µM*, A549 tox-1 -17%, Nrf2 activator 3%, miR-21 FLuc -1%, FLuc counter 3 -14%, A549 tox-2 -22% and ARE-Fluc inh 6.5µM*.
For CCS(=O)(=O)C(C)(C)S(=O)(=O)CC the results were PI4K2A block 1.
For CC1=CC(O)C(O)C2(C)C1CC1OC(=O)C(O)C3C(C)C(O)C4(O)OCC13C42 (stereo unspecified) the results were PI4K2A block 5, Nrf2 block 2.9µM*, A549 tox-1 -20%, Nrf2 activator 0%, FLuc counter 3 -2%, A549 tox-2 -24% and ARE-Fluc inh 5.2µM*.
Screening Cc1ccc2oc(-c3ccc(Cl)cc3)c(O)c(=O)c2c1 returned PI4K2A block 0, Nrf2 block 2%, A549 tox-1 -7%, Nrf2 activator 4% and miR-21 FLuc -40%.
COc1cccc(NC(=O)CCc2nc(-c3ccc(C(C)(C)C)cc3)no2)c1 was read as PI4K2A block 4, Nrf2 block 0.26µM*, A549 tox-1 -3%, Nrf2 activator -4%, miR-21 FLuc inconclusive, FLuc counter 3 2.4µM*, A549 tox-2 -5% and ARE-Fluc inh 0.92µM*.
Screening COc1ccc(NC(=O)CCc2nc(C3=CCN(Cc4cccc(C)c4)CC3)no2)c(OC)c1 returned PI4K2A block 0, A549 tox-1 5%, Nrf2 activator 0% and miR-21 FLuc 16%.
For O=C(NNc1c(F)c(F)cc(F)c1F)c1cc2ccccc2oc1=O the results were GALK inhibitor 15%, PI4K2A block 4, Nrf2 block 10%, A549 tox-1 -6%, Nrf2 activator 4% and miR-21 FLuc -60%.
For Cc1ccc(NC(=O)c2ncn(CC(=O)NCc3ccc4c(c3)OCO4)n2)cc1C the results were PI4K2A block -1, Nrf2 block inconclusive, A549 tox-1 -3% and Nrf2 activator 3%.
CC1OC(OC2C=C3CCC4C(CCC5(C)C(c6ccc(=O)oc6)CCC45O)C3(C)CC2)C(O)C(OC2OC(CO)C(O)C(O)C2O)C1O (stereo unspecified) was read as PI4K2A block 1, Nrf2 block 0.073µM*, A549 tox-1 inconclusive, Nrf2 activator -2%, FLuc counter 3 2%, A549 tox-2 inconclusive and ARE-Fluc inh 0.0082µM*.
CCCCCn1c(=O)c(C(=O)Nc2ccccn2)c(O)c2ccccc21 was read as GALK inhibitor 2%, PI4K2A block 2, Nrf2 block inconclusive, A549 tox-1 -6%, Nrf2 activator 4% and miR-21 FLuc 0%.
For CCCCCCn1c(=O)c(C(=O)Nc2cnccn2)c(O)c2ccccc21 the results were GALK inhibitor -1%, PI4K2A block 1, Nrf2 block 4.1µM*, A549 tox-1 inconclusive, Nrf2 activator 0%, miR-21 FLuc -1%, FLuc counter 3 -1%, A549 tox-2 inconclusive and ARE-Fluc inh 5.2µM*.
`COC(=O)[C@]12OC[C@]34C([C@@H](O)[C@@H]1O)[C@]1(C)CC(=O)C(O)=C(C)[C@@H]1C[C@H]3OC(=O)[C@H](O)[C@@H]24` (stereo partly specified) gave GALK inhibitor 3%, PI4K2A block 0, Nrf2 block 1.3µM*, A549 tox-1 inconclusive, Nrf2 activator -3%, miR-21 FLuc inconclusive, FLuc counter 3 -1%, A549 tox-2 inconclusive and ARE-Fluc inh 1.5µM*.
Screening CCCCCCCCCCCCCC(=O)O[C@@H]1[C@@H](C)[C@@]2(O)[C@@H](C=C(CO)C[C@@]3(O)C(=O)C(C)=C[C@@H]23)C2C(C)(C)[C@@]21OC(C)=O (stereo partly specified) returned PI4K2A block 2.
`Cc1ccc(C(=O)Oc2cc(N)n(S(=O)(=O)c3ccc(F)cc3)n2)cc1` gave GALK inhibitor -4%, PI4K2A block 47, Nrf2 block 1.8µM*, A549 tox-1 8%, Nrf2 activator -2%, miR-21 FLuc 2%, FLuc counter 3 -17%, A549 tox-2 -7% and ARE-Fluc inh 1.6µM*.
`CC(C)(C)c1cc(C=C(C#N)C#N)cc(C(C)(C)C)c1O` gave PI4K2A block 11, Nrf2 block 0.65µM*, A549 tox-1 inconclusive, Nrf2 activator 0%, FLuc counter 3 -3%, A549 tox-2 inconclusive and ARE-Fluc inh 1.3µM*.
For N#CC(C#N)=Cc1ccc(O)c(O)c1 the results were PI4K2A block 3, Nrf2 block -23%, A549 tox-1 0% and Nrf2 activator 1%.
For C[C@H]1CC[C@@H]2[C@@H](C)[C@H]3C(C[C@H]4C5CC[C@H]6C[C@@H](O)CC[C@]6(C)C5CC[C@]34C)N2C1 (stereo partly specified) the results were Nrf2 block 18% and A549 tox-1 1%.

In the list so far, these have fluorine:
For O=C(NNc1c(F)c(F)cc(F)c1F)c1cc2ccccc2oc1=O the results were GALK inhibitor 15%, PI4K2A block 4, Nrf2 block 10%, A549 tox-1 -6%, Nrf2 activator 4% and miR-21 FLuc -60%.
`Cc1ccc(C(=O)Oc2cc(N)n(S(=O)(=O)c3ccc(F)cc3)n2)cc1` gave GALK inhibitor -4%, PI4K2A block 47, Nrf2 block 1.8µM*, A549 tox-1 8%, Nrf2 activator -2%, miR-21 FLuc 2%, FLuc counter 3 -17%, A549 tox-2 -7% and ARE-Fluc inh 1.6µM*.

Compound activity deposited in PubChem BioAssay by National Center for Advancing Translational Sciences (NCATS).
